# Antibody variant affinities, Ab-14 light chain, assay 1

Values reported by Engelhart et al. 2022, doi:10.1038/s41597-022-01779-4 (FLAb copy).

Target peptide (SARS-CoV-2 spike, HR2 region): PDVDLGDISGINAS

Each scFv is VH, the linker GGGGSGGGGSGGGGS, VL, as in the parent Ab-14, and differs from it in the CDRs of the light chain only.
VH: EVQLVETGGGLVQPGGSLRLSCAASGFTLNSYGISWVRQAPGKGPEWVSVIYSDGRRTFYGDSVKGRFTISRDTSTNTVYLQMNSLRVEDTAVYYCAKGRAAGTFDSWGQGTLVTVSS
VL: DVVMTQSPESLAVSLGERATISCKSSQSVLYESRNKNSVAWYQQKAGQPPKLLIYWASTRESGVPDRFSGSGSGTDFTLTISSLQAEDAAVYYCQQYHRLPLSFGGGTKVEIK

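The parent was found by panning a naive human phage display library on the peptide. In library AAYL50, one, two or three CDR residues were substituted; doubles and triples were drawn at random. Affinity was read by AlphaSeq, a pooled yeast mating assay with surface-displayed partners. The frequency of each diploid, read from paired DNA barcodes, reflects how well the two displayed proteins bind. The ratio of observed to expected reads was calibrated, replicate by replicate, on BCL2-family standards whose Kd was known from biolayer interferometry. The assay was run in three technical replicates.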

The parent's light chain CDRs are KSSQSVLYESRNKNSVA, WASTRES, QQYHRLPLS; each variant's own CDRs replace them letter for letter. Values are log10 of the apparent Kd in nM; lower means stronger binding. A mean of the replicates is given; it leaves out those without a signal. Where no diploid with the target was found in that replicate, the entry reads "ND": below detection, most likely a poor binder, though not proof of it. Three control strains display no target. For library AAYL50, 18% of the pairings with them gave a signal, with a median of 4.19 and one signal in twenty below 2.99, so weak values seen in few replicates may be background. Also given: how often the same scFv was detected with the empty control strains.

With KASQSVLYESRNKNCVA, WASTHES, QQYHRLPLS the result was 5.89, ND, ND (controls 2 of 9).
With KSSQSVLYESRNKNSVA, IASTRLN, QQYHRLPLS the result was ND, ND, 4.03 (controls 2 of 9).
With KSSQSVLQESRNKNSVA, WASTEES, QQYHRLPLS the result was 2.11, 2.01, 2.19 (mean 2.10; controls 1 of 9).
With KSSQSVLYESRNKNSIA, KASTRES, QQYHRLPLS the result was 0.46, 0.65, 0.49 (mean 0.53; controls 1 of 9).
With KSSQSVLYESRRKNSVA, KARTRES, QQYHRLPLS the result was ND, ND, ND (controls 0 of 9).
With KSSQSVLMESRMKNSVA, WASTRES, QQYHRLPLY the result was 5.70, ND, ND (controls 1 of 9).
With KSEQSVLYESRNKNSVA, WASTRES, QQYTRLWLS the result was ND, ND, ND (controls 1 of 9).
With KSSQSVLYESRNKNTVP, WAFTRES, QQYHRLPLS the result was ND, ND, ND (controls 0 of 9).
With KSSQSVLYESRNVSSVA, WASTRES, QQQHRLPLS the result was 1.92, 2.26, 2.25 (mean 2.14; controls 0 of 9).
With KSSQIVLYESRVKNSVA, WASTRES, QQDHRLPLS the result was 2.31, 3.01, 3.05 (mean 2.79; controls 0 of 9).
With KLSQSVLYESRWKNSVA, WASTRES, QQEHRLPLS the result was 1.00, 1.18, 1.06 (mean 1.08; controls 2 of 9).
With KSSQSVLYSSRNKNSVA, WASTRES, QQYHRLYLS the result was 2.00, 1.53, 1.92 (mean 1.82; controls 0 of 9).
With KSHQSVHYESRNWNSVA, WASTRES, QQYHRLPLS the result was 2.90, 2.67, 3.09 (mean 2.89; controls 4 of 9).
With KSSQSVLYESRNKNSVA, WASTGES, QQYPRLPLH the result was ND, ND, ND (controls 1 of 9).
With KSYQSVLYESRNKNSVA, WASYRES, QQYHRLPRS the result was 4.47, 4.22, 4.08 (mean 4.26; controls 5 of 9).
With KSSMSVLYESRNKNSVA, WASTEES, QQYHRLWLS the result was ND, ND, ND (controls 1 of 9).
With KFSQKVLYESRNKNSVA, WASTRES, QQYHGLPLS the result was 0.59, 0.74, 0.68 (mean 0.67; controls 3 of 9).
With KSSQSVLYESRNKESVA, WAHTRES, QQYARLPLS the result was ND, ND, ND (controls 0 of 9).
With KSSQSVLYESRNKNSWA, FASTRES, QQYHRLPLV the result was ND, 4.22, 3.27 (mean 3.75; controls 4 of 9).
With KSSKSVLYESKNKNSVA, WASTRES, QKYHRLPLS the result was ND, 3.64, ND (controls 0 of 9).
With KSSQSVEYESRNKNSVA, WASTREN, QQYHRLPLS the result was 0.40, 0.82, 0.67 (mean 0.63; controls 1 of 9).
With KTGQSVLYESRNKNSVA, WAFTRES, QQYHRLPLS the result was 2.86, 2.07, 2.44 (mean 2.46; controls 0 of 9).
With KISQSVLYESLNKNSVA, WASTRES, QQYMRLPLS the result was 0.12, 0.34, 0.24 (mean 0.24; controls 4 of 9).
With RSSQHVLYESRNKNSSA, WASTRES, QQYHRLPLS the result was ND, ND, 5.93 (controls 4 of 9).
With KSDQNVLYESRNKNSVA, WAATRES, QQYHRLPLS the result was 0.43, 0.58, 0.57 (mean 0.53; controls 1 of 9).
With KSSQSVLYESRNKNSVA, WASTQES, QQQHRAPLS the result was 4.56, ND, ND (controls 4 of 9).
With KPSGSVLYESRNKNSVA, WASTWES, QQYHRLPLS the result was ND, 3.16, ND (controls 0 of 9).
With KSSQSSLYESRMKNSVA, WASTRMS, QQYHRLPLS the result was 0.63, 0.79, 0.95 (mean 0.79; controls 0 of 9).
With KGSQSVLYESRNKNSVA, WASTWCS, QQYHRLPLS the result was ND, ND, 4.96 (controls 3 of 9).
With KMSQSVLYESRNKNYVA, WASTRES, QQSHRLPLS the result was ND, ND, ND (controls 0 of 9).
With KSDQSVLYESRNKNSVA, WASTTES, QQYHRLPLS the result was ND, ND, ND (controls 2 of 9).
With KSSQSDLYESRNKNSVA, WASERES, NQYHRLPLS the result was 1.82, 1.49, 1.79 (mean 1.70; controls 2 of 9).
With KSSQSVLKESLNKNSVA, WASTRES, QQYHRLPLH the result was 0.87, 0.96, 1.03 (mean 0.95; controls 4 of 9).

4 of these entries, quoted again:

{"CDR-L1": "KSSQSVLYESRNVSSVA", "CDR-L2": "WASTRES", "CDR-L3": "QQQHRLPLS", "log10 Kd, replicates": "1.92, 2.26, 2.25", "mean log10 Kd (nM)": "2.14", "signal with controls": "0 of 9"}
{"CDR-L1": "KSSQSVLYSSRNKNSVA", "CDR-L2": "WASTRES", "CDR-L3": "QQYHRLYLS", "log10 Kd, replicates": "2.00, 1.53, 1.92", "mean log10 Kd (nM)": "1.82", "signal with controls": "0 of 9"}
{"CDR-L1": "KSEQSVLYESRNKNSVA", "CDR-L2": "WASTRES", "CDR-L3": "QQYTRLWLS", "log10 Kd, replicates": "ND, ND, ND", "mean log10 Kd (nM)": "ND", "signal with controls": "1 of 9"}
{"CDR-L1": "KSSQSDLYESRNKNSVA", "CDR-L2": "WASERES", "CDR-L3": "NQYHRLPLS", "log10 Kd, replicates": "1.82, 1.49, 1.79", "mean log10 Kd (nM)": "1.70", "signal with controls": "2 of 9"}

In this assay the parent's reference entry averaged 0.65; its copy inside this library read 1.68.